AlphaSeq binding of Ab-95 light chain variants to a spike HR2 peptide

The target is the same throughout: PDVDLGDISGINAS, from the HR2 region of SARS-CoV-2 spike.

Parent: Ab-95, a human scFv built as VH, three GGGGS repeats, VL. Only the CDRs of the light chain vary.
VH: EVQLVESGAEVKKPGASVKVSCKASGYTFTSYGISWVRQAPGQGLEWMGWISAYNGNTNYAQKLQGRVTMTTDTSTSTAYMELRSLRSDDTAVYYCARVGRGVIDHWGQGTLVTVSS
VL: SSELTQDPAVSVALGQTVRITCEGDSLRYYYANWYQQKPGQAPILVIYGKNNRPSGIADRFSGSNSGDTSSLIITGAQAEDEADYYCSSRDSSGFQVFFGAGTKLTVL

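Library AAYL52 holds single substitutions and randomly drawn double and triple substitutions in the CDRs. AlphaSeq pools MATa yeast showing the antibodies with MATalpha yeast showing the peptide. Binding brings cells together so that they mate, and sequencing counts the barcode pairs among the diploids. A regression on co-assayed BCL2-family reference pairs converts the normalised counts of each replicate to an apparent Kd. Mating was done three times.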

The parent's light chain CDRs are EGDSLRYYYAN, GKNNRPS, SSRDSSGFQVF; each variant's own CDRs replace them letter for letter.
Values are log10 of the apparent Kd in nM; lower means stronger binding.
Replicates are averaged; those with no signal do not enter the mean.
An entry "not detected" has no value in the source: the pair was not observed among the diploids in any replicate. This suggests poor binding but is not conclusive.
Empty control strains, which show no peptide, gave a signal in 28% of pairings with library AAYL52; the median was 3.91 and 95% of these signals were weaker than 2.90. No background was subtracted. For each scFv, signals with the empty controls are counted beside the result.
For reference, the parent read 2.31 as the reference entry and 2.25 as a member of this library.

| log10 Kd (nM), mean | replicates with signal | control signals | CDR-L1 | CDR-L2 | CDR-L3 |
|---|---|---|---|---|---|
| 4.02 | 1 of 3 | 1 of 9 | EGDSLRYFYAN | GKNNFPS | SSKDSSGFQVF |
| 1.44 | 3 of 3 | 3 of 9 | EGTSLLDYYAN | GKNNRPS | SSRDSSGFQVF |
| 2.73 | 3 of 3 | 1 of 9 | EVGSARYYYAN | GKNNRPS | SSRDSSGFQVF |
| 4.00 | 2 of 3 | 2 of 9 | EGDSLRYYTRN | GKNNRPS | SSRDSSGFYVF |
| 2.60 | 3 of 3 | 2 of 9 | EGCSLRYYYMN | GKNNRPS | SSRDSSGFQVF |
| 3.05 | 3 of 3 | 0 of 9 | EGDSLRYYYAN | GKNNRPS | SSRDASFFKVF |
| not detected | 0 of 3 | 0 of 9 | PGDSLRYYYAN | GKNNRPS | SERDSSGFQVF |
| 3.72 | 2 of 3 | 1 of 9 | EGDSLQYYYAN | GKNNRPS | NSRDSVGFQVF |
| 1.82 | 3 of 3 | 6 of 9 | EGDSLRYYYAN | GKNNRPS | GSRDSSGFVPF |
| 3.94 | 2 of 3 | 3 of 9 | EGDSLRLYYAN | SKNNRPE | SSRDSSGFQVF |
| 4.52 | 3 of 3 | 1 of 9 | PGDSLRYYYAN | GSNNRPS | ASRDSSGFQVF |
| 3.58 | 1 of 3 | 5 of 9 | EQDSLRYYYAN | GDNNRPS | SSRDSSGFIVF |
| 2.21 | 3 of 3 | 1 of 9 | EGDSLRYYYAN | GMNNRPS | SSRDTSSFQVF |
| 3.43 | 3 of 3 | 4 of 9 | EGDSLRYYYAN | GKNNAPS | SSRDSSGFAVF |
| 0.95 | 3 of 3 | 1 of 9 | EGDSLRYYYAN | GKNNRPD | SSRDSSNFQVF |
| 4.61 | 2 of 3 | 6 of 9 | EGDSLRYYYAN | GKRNDPS | SSRDSSGFAVF |
| not detected | 0 of 3 | 2 of 9 | EGDSLRYYYAN | GKNNSPS | SSRVDSGFQVF |
| 4.17 | 3 of 3 | 6 of 9 | EGDSLRYYYAM | GKNFRPS | SSRDSSGFQVV |
| 1.71 | 3 of 3 | 5 of 9 | EGDSLMYMYAN | GKNLRPS | SSRDSSGFQVF |
| 3.09 | 3 of 3 | 2 of 9 | EGDSLRYYYAN | GKNNLTS | SSRDSSVFQVF |
| 2.49 | 3 of 3 | 3 of 9 | EGPSLRNYYAN | GKNNRPS | SSRDSNGFQVF |
| 3.66 | 2 of 3 | 2 of 9 | EGDSKRYYYAN | GCNNRPS | SSRDSSGTQVF |
| 3.62 | 1 of 3 | 0 of 9 | EGDSETYYYAN | GKNNRPS | SSRDSSGNQVF |
| 2.88 | 3 of 3 | 2 of 9 | EGDSLRNYYAN | GKNPRPS | SSRDSSGFQCF |
| not detected | 0 of 3 | 0 of 9 | EGDSLRYYYAC | GKNNRPS | SSRDSSQFQNF |
| not detected | 0 of 3 | 1 of 9 | EGDSLRYVYQN | GKNNRPS | SSRDSSGFQVA |
| not detected | 0 of 3 | 1 of 9 | EGDSLRYYYAN | YKNNRPS | SSRDSRGPQVF |
| 1.86 | 3 of 3 | 3 of 9 | EGDSLRYYYAN | GDNNRAS | SSRDSSGFRVF |
| 2.96 | 3 of 3 | 1 of 9 | EGLSLRYYYAN | GKNNRPS | SSRDSSGFGVF |
| 0.48 | 3 of 3 | 5 of 9 | EGPSLRYNYAN | GKNNRPS | SSRDGSGFQVF |
| 2.30 | 3 of 3 | 4 of 9 | EGRKLRHYYAN | GKNNRPS | SSRDSSGFQVF |
| 3.81 | 3 of 3 | 4 of 9 | EGDSERYYYWN | GKNNRPS | SSRDSSGFHVF |
| 2.59 | 3 of 3 | 1 of 9 | MGDSLRYYYAN | GKNNRPS | SSRGSSGFPVF |
| 3.99 | 2 of 3 | 5 of 9 | EGDSLRPYYAY | GKNNRPS | SSYDSSGFQVF |
| not detected | 0 of 3 | 4 of 9 | WGDSLRYYINN | GKNNRPS | SSRDSSGFQVF |
| 2.41 | 3 of 3 | 5 of 9 | EGTSLRQYYAN | GKNNRPS | SSRDSSGFTVF |
| 2.89 | 3 of 3 | 1 of 9 | EGDSLRYVYAN | GKNNHPH | SSRDSSGFQVF |
| 4.02 | 1 of 3 | 4 of 9 | EGDSLRYYYAN | GKINRCS | SSRDSSGGQVF |
| 1.67 | 3 of 3 | 2 of 9 | EGKSLRYYQAN | GKNNRPS | SSRDSSGFQVC |
| not detected | 0 of 3 | 2 of 9 | EGDSLRYYYAN | GKNYRPS | RSRDSSPFQVF |
| 2.74 | 2 of 3 | 0 of 9 | EGDSLRYYYAN | GKNNRPS | NSRDHSGFQVF |
| not detected | 0 of 3 | 6 of 9 | EGDSYRYYYAN | GKNNRPS | SSRDYSGMQVF |
| 4.00 | 1 of 3 | 2 of 9 | EGDSLRYYYAN | GKNPRWS | SSRISSGFQVF |
| 3.20 | 3 of 3 | 3 of 9 | EGDSLRYYYDN | QKNNAPS | SSRDSSGFQVF |
| 4.22 | 1 of 3 | 5 of 9 | EGYSLRYYYAN | GKPNRPS | SSRDHSGFQVF |
| 3.78 | 3 of 3 | 3 of 9 | EGDSNRYYYAN | GKTNRPS | SSRESSGFQVF |
| 4.73 | 3 of 3 | 4 of 9 | EGDSLRPCYAN | GKNNQPS | SSRDSSGFQVF |
| 3.77 | 2 of 3 | 6 of 9 | EGDSLRYYYAN | GKFNRPS | CSRFSSGFQVF |
| 2.50 | 3 of 3 | 1 of 9 | EGDSLRYYYAN | GKNNRPS | SSLDSAGFQVF |
| 4.72 | 1 of 3 | 3 of 9 | EGDLLRYYYAN | GKNNRPS | SSIDSSGFQVC |
| 3.13 | 2 of 3 | 2 of 9 | EGDSLRYYYNN | GKNNRPS | SMRDSMGFQVF |
| 4.11 | 1 of 3 | 3 of 9 | EGDSTRYYYAN | MKNNRPS | SSRDSSGFQVF |
| 1.75 | 3 of 3 | 2 of 9 | RGQSLRYYYAN | GKNNRPS | SSRDSSGFQVF |
| 2.68 | 3 of 3 | 2 of 9 | EGDSLRYYYAN | GKNQRPS | SSRDYSGFQHF |
| 4.34 | 2 of 3 | 3 of 9 | EGDSLRYYYAN | GKNNRMS | TSRDQSGFQVF |

Excerpt, the final 4 entries:

{"CDR-L1": "EGDSTRYYYAN", "CDR-L2": "MKNNRPS", "CDR-L3": "SSRDSSGFQVF", "log10 Kd (nM), mean": "4.11", "replicates with signal": "1 of 3", "control signals": "3 of 9"}
{"CDR-L1": "RGQSLRYYYAN", "CDR-L2": "GKNNRPS", "CDR-L3": "SSRDSSGFQVF", "log10 Kd (nM), mean": "1.75", "replicates with signal": "3 of 3", "control signals": "2 of 9"}
{"CDR-L1": "EGDSLRYYYAN", "CDR-L2": "GKNQRPS", "CDR-L3": "SSRDYSGFQHF", "log10 Kd (nM), mean": "2.68", "replicates with signal": "3 of 3", "control signals": "2 of 9"}
{"CDR-L1": "EGDSLRYYYAN", "CDR-L2": "GKNNRMS", "CDR-L3": "TSRDQSGFQVF", "log10 Kd (nM), mean": "4.34", "replicates with signal": "2 of 3", "control signals": "3 of 9"}

From the AlphaSeq antibody data of Engelhart et al. 2022 (doi:10.1038/s41597-022-01779-4), copy in the FLAb collection.